Experimental data: ChEMBL document CHEMBL1123702, “Functionalized DL-amino acid derivatives. Potent new agents for the treatment of epilepsy” (J Med Chem, 1987)

Key:
[1] = Protectivity index is the ratio of TD50 /MES ED50 from Phase-II evaluation; format: functional
In short: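 MES protection: hind-limb tonic extension abolished; saline drop in eye before electrodes. sc Met: pentylenetetrazole 85 mg/kg as 0.5% solution sc in posterior midline, 30 min observation; protection: no clonic spasm episode of at least 5 s. Rotarod toxicity: falling off a 1-in. rod at 6 rpm within 1 min. PI = TD50/MES ED50.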

[2] = Protectivity index is the ratio of TD50 /MES ED50 from Phase-IV evaluation; format: functional
In short: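 MES protection: hind-limb tonic extension abolished. sc Met: pentylenetetrazole 85 mg/kg as 0.5% solution sc, 30 min observation; protection: no threshold clonic seizure of 5 s or more. Toxicity: failing to stay 1 min on a 6 rpm rod. PI = TD50/MES ED50.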

SMILES: CCC1(C)CC(=O)NC1=O (configuration not stated) [ETHOSUXIMIDE]
- Protective Index [1]: < 0.44
- Protective Index [2]: < 0.44
